Results reported in BindingDB's records for doi:10.7270/Q2JQ0ZDS (Sanford-Burnham Center for Chemical Genomics, 2009).

Chains of the proteins cited; added tags and fusions are not shown. Lines headed by an entry give the natural chain unless they say otherwise; changes in a name come on top.
UniProt P09923: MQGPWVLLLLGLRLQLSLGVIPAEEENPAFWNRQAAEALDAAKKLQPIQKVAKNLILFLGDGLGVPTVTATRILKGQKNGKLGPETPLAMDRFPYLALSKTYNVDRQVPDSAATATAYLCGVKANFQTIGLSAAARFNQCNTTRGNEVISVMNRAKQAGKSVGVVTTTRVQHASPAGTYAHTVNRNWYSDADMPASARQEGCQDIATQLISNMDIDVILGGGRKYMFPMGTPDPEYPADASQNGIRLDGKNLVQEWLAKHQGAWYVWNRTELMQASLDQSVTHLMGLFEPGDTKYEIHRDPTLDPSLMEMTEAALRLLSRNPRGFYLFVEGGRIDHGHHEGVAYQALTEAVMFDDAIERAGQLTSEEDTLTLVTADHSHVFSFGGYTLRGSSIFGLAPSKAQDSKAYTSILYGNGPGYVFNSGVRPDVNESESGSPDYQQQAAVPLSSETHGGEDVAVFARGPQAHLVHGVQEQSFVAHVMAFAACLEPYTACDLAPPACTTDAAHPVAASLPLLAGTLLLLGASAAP

Target: Intestinal-type alkaline phosphatase (Homo sapiens, UniProt P09923)
Experiment: inhibition of intestinal alkaline phosphatase – biochemical, luminescence, dose response (AID 1017)

IC50: 64.6 µM
Compound: Cc1nccn1CC(=O)c1ccc(O)c(O)c1 [1-(3,4-dihydroxyphenyl)-2-(2-methyl-1-imidazolyl)ethanone;hydrochloride]

Structures can show the parent of a compound that is named as a salt.
